Measurements: patent US8071651B2, “5-amino-4-hydroxy-7-(imidazo [1,2-A] pyridin-6-ylmethyl)-8-methyl-nonamide derivatives and related compounds as renin inhibitors for the treatment of hypertension” (Novartis AG, priority 2005, dated 2011)

By UniProt entry, the sequences of proteins in these tests, tags left out. Residues count along the entry.
UniProt P00797, 67-406 limits assumed: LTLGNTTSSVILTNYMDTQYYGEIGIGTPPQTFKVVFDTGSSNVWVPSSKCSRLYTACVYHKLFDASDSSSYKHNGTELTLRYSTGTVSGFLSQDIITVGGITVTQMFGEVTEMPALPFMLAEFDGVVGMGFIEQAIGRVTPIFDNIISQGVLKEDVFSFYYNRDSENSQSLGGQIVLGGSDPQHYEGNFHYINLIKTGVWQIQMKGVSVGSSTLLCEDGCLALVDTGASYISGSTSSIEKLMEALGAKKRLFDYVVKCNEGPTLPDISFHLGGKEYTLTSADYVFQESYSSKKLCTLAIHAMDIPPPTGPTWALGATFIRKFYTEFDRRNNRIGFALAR

What follows are compounds tested against renin (Homo sapiens, UniProt P00797) (assay: in vitro test of Nussberger et al.: formation of angiotensin I in human plasma, determined by radio-immunoassay). Conditions: read-out: IC50 values; concentration of inhibitor which reduces the formation of angiotensin I in human plasma by 50%.
Procedure: The effect of renin inhibitors is detected inter alia experimentally by means of in vitro tests where the reduction in the formation of angiotensin I is measured in various systems (human plasma, purified human renin together with synthetic or natural renin substrate). The following in vitro test of Nussberger et al. (1987) J. Cardiovascular Pharmacol., Vol. 9, pp. 39-44, is used, inter alia. This test measures the formation of angiotensin I in human plasma. The amount of angiotensin I formed is determined in a subsequent radio-immunoassay. The effect of inhibitors on the formation of angiotensin I is tested in this system by adding various concentrations of these substances. The IC50 is defined as the concentration of the particular inhibitor which reduces the formation of angiotensin I by 50%. The compounds of the present invention show inhibitory effects in the in vitro systems at minimal concentrations of about 10^−6 to about 10^−10 mol/l.

SMILES	IC50 [nM]
COCCCn1nc(C)c2ccc(C[C@@H](C[C@H](N)[C@@H](O)C[C@H](C(=O)N[C@H]3[C@@H]4COC[C@@H]43)C(C)C)C(C)C)cc21	0.5
COCCCc1cn(C)c2ccc(C[C@@H](C[C@H](N)[C@@H](O)C[C@H](C(=O)NC[C@@H]3CCCO3)C(C)C)C(C)C)cc12	5.3
COCCCn1cc(C)c2ccc(C[C@@H](C[C@H](N)[C@@H](O)C[C@H](C(=O)NC[C@@H]3[C@H]4COC[C@@H]34)C(C)C)C(C)C)cc21	1.3
COCCCn1cc(C)c2ccc(C[C@@H](C[C@H](N)[C@@H](O)C[C@H](C(=O)N[C@H]3[C@@H]4COC[C@@H]43)C(C)C)C(C)C)cc21	1.7
